Measurements from ChEMBL document CHEMBL1152646, “Synthesis, molecular docking and biological evaluation of metronidazole derivatives as potent Helicobacter pylori urease inhibitors” (Bioorg Med Chem, 2009).

By UniProt entry, the sequences of proteins in these tests, tags left out. Where a name states a change or a piece, a line headed by the entry shows the natural chain unless it says otherwise.
UniProt P69996: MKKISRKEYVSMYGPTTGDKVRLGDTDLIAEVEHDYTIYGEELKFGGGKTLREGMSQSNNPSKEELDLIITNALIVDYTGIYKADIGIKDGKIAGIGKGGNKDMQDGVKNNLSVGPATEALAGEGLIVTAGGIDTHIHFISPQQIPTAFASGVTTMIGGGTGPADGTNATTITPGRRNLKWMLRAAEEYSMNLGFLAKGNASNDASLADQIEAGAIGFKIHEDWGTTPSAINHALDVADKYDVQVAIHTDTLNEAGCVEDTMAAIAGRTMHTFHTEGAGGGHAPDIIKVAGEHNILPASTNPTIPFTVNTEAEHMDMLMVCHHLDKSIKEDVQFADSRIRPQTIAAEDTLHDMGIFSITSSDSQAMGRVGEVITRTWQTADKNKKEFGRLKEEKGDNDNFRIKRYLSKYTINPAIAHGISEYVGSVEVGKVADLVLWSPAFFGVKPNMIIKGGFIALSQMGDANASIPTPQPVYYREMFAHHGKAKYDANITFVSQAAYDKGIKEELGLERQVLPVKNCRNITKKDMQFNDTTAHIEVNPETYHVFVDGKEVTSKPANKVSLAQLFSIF
UniProt P14916: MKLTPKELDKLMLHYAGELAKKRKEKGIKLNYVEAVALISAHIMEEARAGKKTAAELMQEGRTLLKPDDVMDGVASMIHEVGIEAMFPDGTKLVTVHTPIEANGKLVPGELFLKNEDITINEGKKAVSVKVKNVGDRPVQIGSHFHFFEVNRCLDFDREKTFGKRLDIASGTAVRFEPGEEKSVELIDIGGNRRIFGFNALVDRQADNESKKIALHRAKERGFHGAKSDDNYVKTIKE

Molecular target: Urease subunit alpha/Urease subunit beta (Helicobacter pylori (strain ATCC 700392 / 26695) (Campylobacterpylori)) (UniProt P69996+P14916)
Test: Inhibition of Helicobacter pylori ATCC 43504 urease assessed as ammonia production at 1 mM after 3 hrs by indophenol method
Procedure, shortened: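 Crude urease from H. pylori ATCC 43504 grown 24 h at 37 °C microaerobically in brucella broth with 10% heat-inactivated horse serum; cells PBS-washed, stored at -80 °C, sonicated 60 s in water with protease inhibitors, extract mixed 1:1 with glycerol. Enzyme (4 U) preincubated 3 h at room temperature with compound; ammonia measured by indophenol method; percent inhibition.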

Structure (SMILES): CC(=O)NO
- inhibition: 91.2%
